Here are results for 1 molecule from patent publication US20130157953A1, “TREATMENT OF CARDIAC CONDITIONS” (Zealand Pharma A/S, priority 2010, published 2013).

Amino acid sequences for entries named in this document (tags omitted). A change or cut given only in a name is not applied to a line headed by its entry.
UniProt P43220: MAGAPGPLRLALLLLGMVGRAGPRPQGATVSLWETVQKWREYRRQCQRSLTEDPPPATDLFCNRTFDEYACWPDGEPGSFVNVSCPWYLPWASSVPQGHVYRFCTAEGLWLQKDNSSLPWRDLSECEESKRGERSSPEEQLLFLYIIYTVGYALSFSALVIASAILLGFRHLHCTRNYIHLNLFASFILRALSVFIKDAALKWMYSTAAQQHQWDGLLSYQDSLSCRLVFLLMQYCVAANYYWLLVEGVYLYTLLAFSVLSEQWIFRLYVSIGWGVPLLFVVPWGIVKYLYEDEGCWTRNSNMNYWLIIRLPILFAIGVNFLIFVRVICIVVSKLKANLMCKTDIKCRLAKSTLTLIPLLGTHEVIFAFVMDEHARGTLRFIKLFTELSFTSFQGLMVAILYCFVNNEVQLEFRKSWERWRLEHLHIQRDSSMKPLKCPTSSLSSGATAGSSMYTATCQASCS

The target in this experiment is human glucagon-like peptide 1 receptor (GLP-1R) (human, UniProt P43220 24-463). Briefly: cell-based or functional assay.

B1: Compound 215 (peptide)
peptide: HAQGTFTSDYSKYLDSKAAHDFVEWLLSA
modifications: Aib at 2; K(Hexadecanoyl-[3-Aminopropanoyl]) at 17; C-terminal amide
Take B1: the “EC50 (nM) GLP-1R; cAMP content, HEK293 cells expressing human GLP-1R” value stood at 0.23 nM.
